Molecular target: SARS-CoV-2 papain-like protease (PLPro) (Severe acute respiratory syndrome coronavirus 2, UniProt P0DTD1)
Assay type: biochemical

Molecule `CC1=C(/C=C/C(C)=C/C=C/C(C)=C\C(=O)O)C(C)(C)CCC1` [Comparative Group 1, 13-cis-retinoic acid] has an Inhibition percentage of 20.63 ± 1.27%.

From patent publication US20220072036A1, “METHOD FOR INHIBITING CORONAVIRUS AND METHOD FOR TREATING DISEASE ASSOCIATED WITH CORONAVIRUS INFECTION” (AMAZING FORTUNE CO., LTD., priority 2020, published 2022)
